The target in the experiment is neuronal nitric oxide synthase (NNOS), as used for the CAM binding of Table 2 (Rattus norvegicus (Rat)) (UniProt P29476). The experiment can be described thus: radiolabeled CAM trapped on a membrane by NNOS adhesion; no peptide added.

In the case of calmodulin (from UniProt P0DP23 2-149), the NNOS CAM Binding (counts) worked out at 774 counts.

(Values after patent US6750197.)
